Reference: publication PMC11694070, “Development of 6-amido-4-aminoisoindolyn-1,3-diones as p70S6K1 inhibitors and potential breast cancer therapeutics” (Frontiers in Molecular Biosciences, 2024)

Protein sequences, listed by entry. Tags and fused reporters are not part of them. Residues count along the entry.
UniProt P23443, 24-525: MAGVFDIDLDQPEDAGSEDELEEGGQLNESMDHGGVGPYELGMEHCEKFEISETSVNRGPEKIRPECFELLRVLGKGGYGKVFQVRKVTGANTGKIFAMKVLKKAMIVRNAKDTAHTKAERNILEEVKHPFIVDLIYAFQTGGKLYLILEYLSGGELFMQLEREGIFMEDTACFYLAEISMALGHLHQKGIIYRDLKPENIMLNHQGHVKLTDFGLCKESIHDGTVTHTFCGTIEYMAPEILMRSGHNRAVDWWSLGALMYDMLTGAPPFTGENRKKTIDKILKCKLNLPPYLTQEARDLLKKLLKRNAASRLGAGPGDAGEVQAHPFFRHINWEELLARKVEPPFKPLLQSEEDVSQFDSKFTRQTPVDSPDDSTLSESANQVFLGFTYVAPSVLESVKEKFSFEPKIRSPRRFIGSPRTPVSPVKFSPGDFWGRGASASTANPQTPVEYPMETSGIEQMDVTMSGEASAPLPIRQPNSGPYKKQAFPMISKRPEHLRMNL

Molecular target: p70S6K1 (Homo sapiens, UniProt P23443)
Test: Z′-LYTE biochemical kinase inhibition assay (SelectScreen, Thermo Fisher)
Conditions: 10-point titration, 3-fold dilutions from 25 μM
Protocol: The high-throughput and dose-response curve assays against kinases were performed using the services of SelectScreen™ Biochemical Kinase Profiling Service by Thermo Fisher Scientific (Table 2; Supplementary Figure S13). The Z ´-LYTE biochemical assay employs a fluorescence-based, coupled-enzyme format based on the differential sensitivity of phosphorylated and non-phosphorylated peptides to proteolytic cleavage. The peptide substrate is labeled with two fluorophores—one at each end—that make up a fluorescence resonance energy transfer (FRET) pair. In the primary reaction, the kinase transfers the gamma-phosphate of ATP to a single tyrosine, serine, or threonine residue in a synthetic FRET-peptide. […] A ratiometric method, which calculates the emission ratio of donor emission to acceptor emission after excitation of the donor fluorophore at 400 nm, is used to quantitate reaction progress, as shown in the equation below.” Emission ratio=Coumarin emission 445 nm/Flourescein emission 520 nm. […]
All ATP Solutions are diluted to a 4X working concentration in kinase buffer (50 mM HEPES pH 7.5, 0.01% BRIJ-35, 10 mM MgCl2, 1 mM EGTA). ATP Km apparent was previously determined using a Z′-LYTE assay.
Bar-coded Corning, low volume NBS, black 384-well plate (Corning Cat. #4514). • 1. […] Read on the fluorescence plate reader and analyze the data […]

Compound: CCc1cncnc1N1CCN(Cc2nc3cc(C(F)(F)F)ccc3[nH]2)CC1 [PF-4708671]
- IC50: 180 nM
